# Data taken from BindingDB's records for doi:10.1021/acs.jmedchem.1c00173 (Medicines For Malaria Venture, 2021).
# Amino acid sequences for entries named in this document (tags omitted).
# UniProt P25103, whole entry: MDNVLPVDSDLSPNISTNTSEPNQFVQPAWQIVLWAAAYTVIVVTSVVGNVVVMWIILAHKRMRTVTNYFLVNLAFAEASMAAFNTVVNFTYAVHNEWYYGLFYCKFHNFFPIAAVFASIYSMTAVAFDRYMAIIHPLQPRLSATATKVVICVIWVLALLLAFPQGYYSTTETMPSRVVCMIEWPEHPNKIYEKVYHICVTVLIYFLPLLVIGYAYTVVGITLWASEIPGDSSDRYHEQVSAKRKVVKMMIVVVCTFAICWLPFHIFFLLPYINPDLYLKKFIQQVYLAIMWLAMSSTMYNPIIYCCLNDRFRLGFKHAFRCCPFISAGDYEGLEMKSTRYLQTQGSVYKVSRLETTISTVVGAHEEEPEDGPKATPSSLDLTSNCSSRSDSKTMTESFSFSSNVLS
# Biological target: Substance-P receptor (Homo sapiens, UniProt P25103)
smiles,measurement,value
Cc1c(C2(c3ccc(C(F)(F)F)c(C#N)c3)CC2)c[nH]c1C(=O)NC(C)c1nc[nH]n1 (stereo in doubt; form 1),IC50,2 µM
